Here are results for three compounds from ChEMBL document CHEMBL2150997, “Profiling of a prescription drug library for potential renal drug-drug interactions mediated by the organic cation transporter 2” (J Med Chem, 2011).

This assay deals with T1, Multidrug and toxin extrusion protein 1 (Homo sapiens, UniProt Q96FL8).
T1 sequence (Q96FL8 whole entry): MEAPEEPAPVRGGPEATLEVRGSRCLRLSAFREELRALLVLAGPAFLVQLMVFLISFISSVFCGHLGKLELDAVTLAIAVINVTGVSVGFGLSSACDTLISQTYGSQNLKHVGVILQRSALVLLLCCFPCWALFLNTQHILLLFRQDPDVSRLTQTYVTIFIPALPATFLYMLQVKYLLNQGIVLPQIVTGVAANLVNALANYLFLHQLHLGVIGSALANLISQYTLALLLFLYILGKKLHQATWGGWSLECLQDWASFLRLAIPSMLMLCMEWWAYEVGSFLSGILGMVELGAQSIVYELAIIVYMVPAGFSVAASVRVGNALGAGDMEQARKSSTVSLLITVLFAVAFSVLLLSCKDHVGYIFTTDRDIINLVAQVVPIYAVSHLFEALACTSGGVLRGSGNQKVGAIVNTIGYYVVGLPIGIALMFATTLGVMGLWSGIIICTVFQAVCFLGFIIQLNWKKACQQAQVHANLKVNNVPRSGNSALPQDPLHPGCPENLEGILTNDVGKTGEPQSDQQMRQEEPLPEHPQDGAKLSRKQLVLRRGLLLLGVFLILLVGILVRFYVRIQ

`CN/C(=N/CCSCc1nc[nH]c1C)NC#N` [CIMETIDINE]: inhibition was half-maximal at 5700 nM (IC50).

As to `Cc1nccn1CC1CCc2c(c3ccccc3n2C)C1=O` (stereo not drawn) [ONDANSETRON], half-maximal inhibition (IC50) required 150 nM. This IC50 is about 38-fold lower than that of the compound before.

For the compound `Nc1c2c(nc3ccccc13)CCCC2` [TACRINE], the IC50 is 1100 nM.

For orientation: IC50 means the point on the concentration scale where inhibition reaches its midpoint. Lower therefore signals greater potency in that assay.
